Our source for the Cytotoxicity values is patent US7205002B2, “Method of making, and the use of cytotoxic agents containing elemental selenium” (MCW Research Foundation, Inc., priority 2002, dated 2007).

The subject of this data set is L1210 leukemia cells. Put plainly: Cytotoxicity of chemically prepared Se(0)-protein conjugates with selenium dioxide control. The conditions noted are these: equimolar (up to 30 μM) concentrations.

As for selenium dioxide, the Cytotoxicity result is on record as “not cytotoxic”.
